Results taken from paper PMC3107525 (The Journal of neuroscience : the official journal of the …, 2011).

Target: hSERT Y95F/C109A/Q332C (Homo sapiens, UniProt P31645, C109A/Q332C/Y95F)
Conditions: 40 μM 5HT, 4 mM DA, 40 μM cocaine or 160 μM ibogaine

Compound | effect on MTSET-inactivation
COC(=O)[C@H]1[C@@H](OC(=O)c2ccccc2)C[C@@H]2CC[C@H]1N2C [Cocaine, cocaine] | potentiated
ibogaine | protection from MTSET-inactivation
